IC50 and Ki data for 1 compound are collected here from ChEMBL document CHEMBL1140203, “cis-4-(Piperazin-1-yl)-5,6,7a,8,9,10,11,11a-octahydrobenzofuro[2,3-h]quinazolin-2-amine (A-987306), a new histamine H4R antagonist that blocks pain responses against carrageenan-induced hyperalgesia” (J Med Chem, 2008).

Amino acid sequences for entries named in this document (tags omitted).
UniProt P30536, whole entry: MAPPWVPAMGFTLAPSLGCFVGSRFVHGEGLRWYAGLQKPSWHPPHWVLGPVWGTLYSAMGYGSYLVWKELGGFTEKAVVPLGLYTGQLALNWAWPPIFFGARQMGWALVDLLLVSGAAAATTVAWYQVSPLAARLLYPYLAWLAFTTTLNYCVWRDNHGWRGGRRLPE

Structures are written as SMILES.

The assay has as its target Translocator protein (Homo sapiens, UniProt P30536).

In the case of `CCC(C)N(C)C(=O)c1cc2ccccc2c(-c2ccccc2Cl)n1` (configuration not stated) [PK-11195], the IC50 turned out to be 2.5 nM and the Ki worked out at 2.3 nM.
